Publication PMC7646624 (European journal of medicinal chemistry, 2020)

Chains of the proteins cited; added tags and fusions are not shown. Lines headed by an entry give the natural chain unless they say otherwise; changes in a name come on top. Residues count along the entry.
UniProt P26358: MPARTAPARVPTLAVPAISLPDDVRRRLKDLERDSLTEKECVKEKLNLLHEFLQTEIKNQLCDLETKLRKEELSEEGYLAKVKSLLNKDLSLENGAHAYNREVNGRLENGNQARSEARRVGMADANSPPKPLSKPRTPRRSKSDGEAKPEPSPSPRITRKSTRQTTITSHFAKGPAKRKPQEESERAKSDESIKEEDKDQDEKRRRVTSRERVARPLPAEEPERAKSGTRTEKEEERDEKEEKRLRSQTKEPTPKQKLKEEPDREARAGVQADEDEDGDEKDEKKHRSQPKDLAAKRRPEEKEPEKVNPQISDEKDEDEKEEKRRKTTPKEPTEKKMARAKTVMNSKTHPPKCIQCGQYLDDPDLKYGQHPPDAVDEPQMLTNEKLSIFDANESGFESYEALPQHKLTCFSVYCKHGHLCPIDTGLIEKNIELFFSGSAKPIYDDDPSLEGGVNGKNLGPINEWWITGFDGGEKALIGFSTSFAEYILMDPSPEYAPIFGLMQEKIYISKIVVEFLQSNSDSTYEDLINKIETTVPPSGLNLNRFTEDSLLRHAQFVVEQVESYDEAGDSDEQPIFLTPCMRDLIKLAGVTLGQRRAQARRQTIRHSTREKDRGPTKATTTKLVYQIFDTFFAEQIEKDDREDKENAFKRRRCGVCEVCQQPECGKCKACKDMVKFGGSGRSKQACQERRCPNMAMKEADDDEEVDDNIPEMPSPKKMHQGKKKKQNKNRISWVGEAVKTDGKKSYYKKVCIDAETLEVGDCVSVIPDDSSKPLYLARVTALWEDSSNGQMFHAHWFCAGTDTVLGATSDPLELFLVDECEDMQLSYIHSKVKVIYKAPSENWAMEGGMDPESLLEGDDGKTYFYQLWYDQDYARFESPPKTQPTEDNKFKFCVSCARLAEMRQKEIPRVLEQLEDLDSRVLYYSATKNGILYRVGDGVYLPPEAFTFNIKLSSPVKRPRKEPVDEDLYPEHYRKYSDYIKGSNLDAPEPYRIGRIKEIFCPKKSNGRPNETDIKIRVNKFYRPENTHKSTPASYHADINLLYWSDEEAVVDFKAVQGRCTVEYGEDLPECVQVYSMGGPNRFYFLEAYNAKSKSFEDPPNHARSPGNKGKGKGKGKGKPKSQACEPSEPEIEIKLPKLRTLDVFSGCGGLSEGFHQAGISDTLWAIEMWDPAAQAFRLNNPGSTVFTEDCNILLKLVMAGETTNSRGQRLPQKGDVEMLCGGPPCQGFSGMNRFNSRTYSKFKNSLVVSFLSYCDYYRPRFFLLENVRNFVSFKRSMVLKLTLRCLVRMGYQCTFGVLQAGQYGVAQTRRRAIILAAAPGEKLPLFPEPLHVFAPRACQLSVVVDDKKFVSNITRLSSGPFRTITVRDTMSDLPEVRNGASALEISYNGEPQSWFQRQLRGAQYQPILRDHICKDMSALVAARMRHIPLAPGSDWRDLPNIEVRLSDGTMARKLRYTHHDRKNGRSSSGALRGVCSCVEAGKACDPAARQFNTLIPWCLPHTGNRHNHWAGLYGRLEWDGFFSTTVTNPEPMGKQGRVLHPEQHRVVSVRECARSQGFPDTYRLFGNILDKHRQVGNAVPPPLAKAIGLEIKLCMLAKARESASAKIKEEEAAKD
UniProt Q8TEK3, 1-420: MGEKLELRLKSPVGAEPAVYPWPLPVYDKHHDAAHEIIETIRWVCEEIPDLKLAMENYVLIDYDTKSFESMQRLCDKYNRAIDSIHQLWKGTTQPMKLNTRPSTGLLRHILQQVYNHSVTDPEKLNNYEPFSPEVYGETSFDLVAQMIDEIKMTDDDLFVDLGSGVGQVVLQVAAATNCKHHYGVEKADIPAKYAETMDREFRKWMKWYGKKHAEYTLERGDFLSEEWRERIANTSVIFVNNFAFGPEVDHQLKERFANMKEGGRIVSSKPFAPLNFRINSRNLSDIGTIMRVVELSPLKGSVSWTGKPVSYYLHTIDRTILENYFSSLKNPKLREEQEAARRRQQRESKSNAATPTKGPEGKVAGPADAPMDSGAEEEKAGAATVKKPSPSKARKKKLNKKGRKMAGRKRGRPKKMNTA
UniProt Q9NR22, whole entry: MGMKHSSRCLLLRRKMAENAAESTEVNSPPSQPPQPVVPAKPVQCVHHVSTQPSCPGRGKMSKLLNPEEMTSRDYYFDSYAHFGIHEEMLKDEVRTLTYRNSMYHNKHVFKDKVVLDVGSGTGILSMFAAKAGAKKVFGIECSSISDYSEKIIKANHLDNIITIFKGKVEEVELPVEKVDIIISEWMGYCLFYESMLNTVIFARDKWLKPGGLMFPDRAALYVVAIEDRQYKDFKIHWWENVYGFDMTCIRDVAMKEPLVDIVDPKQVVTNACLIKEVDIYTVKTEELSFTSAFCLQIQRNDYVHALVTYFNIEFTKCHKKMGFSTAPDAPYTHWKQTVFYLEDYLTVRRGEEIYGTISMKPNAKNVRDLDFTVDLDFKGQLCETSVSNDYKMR

Columns and labels:
DNMT1 = DNMT1 (Homo sapiens, UniProt P26358)
GST-DOT1L [1] = target: T1, GST-DOT1L (Homo sapiens, UniProt Q8TEK3); settings: ratio of MTase-Glo IC50 values
PRMT8 = PRMT8 (Homo sapiens, UniProt Q9NR22)
GST-DOT1L [2] = target: T1, GST-DOT1L; experiment: Thermal stability shift assay; type: binding; settings: 10 μM GST-DOT1L, various concentrations of compound
E2A-HLF cells = settings: DOT1L-independent negative control line
[3] = system: MLL-AF9 transformed cells; settings: 3 μM

| Compound | selectivity (SI) for DOT1L (IC50 MT/IC50 DOT1L), DNMT1 (DNMT1) | fold improvement of DOT1L inhibition in comparison with hit 9 (GST-DOT1L [1]) [fold] | selectivity (SI) for DOT1L (IC50 MT/IC50 DOT1L), PRMT8 (PRMT8) | thermal shift of DOT1L (direct binding) (GST-DOT1L [2]) | effect on the growth of E2A-HLF cells (E2A-HLF cells) | cell differentiation, Wright-Giemsa stain [3] |
| --- | --- | --- | --- | --- | --- | --- |
| CC(C)(C)c1ccc(NC(=O)c2ncn(CC(=O)NCCn3ccc4c(N)ncnc43)n2)cc1 [Compound 25, 1-(2-((2-(4-amino-7H-pyrrolo[2,3-d]pyrimidin-7-yl)ethyl)amino)-2-oxoethyl)-N-(4-(tert-butyl)phenyl)-1H-1,2,4-triazole-3-carboxamide] | ca. 250 | 40 | > 250 | dose-dependent stabilization of DOT1L | – | – |
| CC(C)N(CCCNC(=O)Nc1ccc(C(C)(C)C)cc1)C[C@H]1O[C@@H](n2ccc3c(N)ncnc32)[C@H](O)[C@@H]1O [EPZ004777, reference compound] | – | – | – | – | doesn’t show any effect on the growth | inducing cell differentiation |
